Here are results for 2 compounds from BindingDB's records for patent US9656988 (Pharmacyclics, 2017).

Sequences of proteins named here, by UniProt entry; tags and fusion partners are left off.
UniProt P00533, whole entry: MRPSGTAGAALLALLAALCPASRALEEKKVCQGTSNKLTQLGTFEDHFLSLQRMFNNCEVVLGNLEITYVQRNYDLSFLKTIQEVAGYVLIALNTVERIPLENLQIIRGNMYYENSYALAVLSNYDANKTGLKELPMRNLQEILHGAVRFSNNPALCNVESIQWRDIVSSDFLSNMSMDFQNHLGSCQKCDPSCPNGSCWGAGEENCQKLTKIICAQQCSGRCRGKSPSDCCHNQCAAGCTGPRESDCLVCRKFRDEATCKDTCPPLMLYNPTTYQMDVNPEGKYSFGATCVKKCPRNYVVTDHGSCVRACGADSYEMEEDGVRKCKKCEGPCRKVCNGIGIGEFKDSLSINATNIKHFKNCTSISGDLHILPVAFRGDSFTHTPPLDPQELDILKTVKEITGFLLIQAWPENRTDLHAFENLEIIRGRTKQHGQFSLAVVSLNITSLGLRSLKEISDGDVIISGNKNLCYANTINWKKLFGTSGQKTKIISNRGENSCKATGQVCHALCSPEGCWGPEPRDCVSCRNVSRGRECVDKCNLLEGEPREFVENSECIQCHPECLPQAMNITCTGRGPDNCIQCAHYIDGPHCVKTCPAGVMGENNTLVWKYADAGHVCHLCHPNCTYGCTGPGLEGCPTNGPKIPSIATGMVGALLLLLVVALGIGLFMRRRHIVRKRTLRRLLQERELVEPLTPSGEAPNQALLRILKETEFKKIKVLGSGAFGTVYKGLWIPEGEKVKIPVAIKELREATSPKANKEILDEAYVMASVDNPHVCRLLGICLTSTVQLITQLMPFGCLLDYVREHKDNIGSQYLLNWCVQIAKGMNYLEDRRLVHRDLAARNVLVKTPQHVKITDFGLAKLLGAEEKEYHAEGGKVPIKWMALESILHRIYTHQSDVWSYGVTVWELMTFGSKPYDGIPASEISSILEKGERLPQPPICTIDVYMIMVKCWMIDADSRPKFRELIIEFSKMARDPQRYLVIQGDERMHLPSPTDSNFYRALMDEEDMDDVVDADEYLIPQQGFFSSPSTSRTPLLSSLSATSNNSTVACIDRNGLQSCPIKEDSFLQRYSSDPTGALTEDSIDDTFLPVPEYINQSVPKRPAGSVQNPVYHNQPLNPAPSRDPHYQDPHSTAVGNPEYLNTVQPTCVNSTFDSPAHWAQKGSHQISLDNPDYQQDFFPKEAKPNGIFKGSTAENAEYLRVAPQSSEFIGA

A word on the IC50: it is the concentration at which inhibition is half-maximal. The low end stands for higher potency, the high end for lower potency.

The structures appear in SMILES notation.

The target of the test is Epidermal growth factor receptor (Homo sapiens, UniProt P00533).

Consider `CC#CC(=O)N1CCC[C@@H](N(C)c2cnc(C(N)=O)c(Nc3ccc(C(=O)N4CCOCC4)cc3)n2)C1` [US9656988, Example 157], for which the IC50 entry was “in the range around 5.5 µM”. As to `CN(C)C(=O)N[C@@H]1CCCN(c2cnc(C(N)=O)c(Nc3ccc(C4CCN(C5CC5)CC4)cc3)n2)C1` [US9656988, Example 206], the IC50 entry was “in the range around 0.55 µM”.
